Reference: patent publication US20240058422A1, “GLUCAGON-LIKE PEPTIDE-1 RECEPTOR ANTAGONISTS” (INDIANA UNIVERSITY RESEARCH AND TECHNOLOGY CORPORATION, priority 2022, published 2024)

The chains behind the UniProt entries cited, without tags or fusion partners. Where a name states a change or a piece, a line headed by the entry shows the natural chain unless it says otherwise.
UniProt P43220: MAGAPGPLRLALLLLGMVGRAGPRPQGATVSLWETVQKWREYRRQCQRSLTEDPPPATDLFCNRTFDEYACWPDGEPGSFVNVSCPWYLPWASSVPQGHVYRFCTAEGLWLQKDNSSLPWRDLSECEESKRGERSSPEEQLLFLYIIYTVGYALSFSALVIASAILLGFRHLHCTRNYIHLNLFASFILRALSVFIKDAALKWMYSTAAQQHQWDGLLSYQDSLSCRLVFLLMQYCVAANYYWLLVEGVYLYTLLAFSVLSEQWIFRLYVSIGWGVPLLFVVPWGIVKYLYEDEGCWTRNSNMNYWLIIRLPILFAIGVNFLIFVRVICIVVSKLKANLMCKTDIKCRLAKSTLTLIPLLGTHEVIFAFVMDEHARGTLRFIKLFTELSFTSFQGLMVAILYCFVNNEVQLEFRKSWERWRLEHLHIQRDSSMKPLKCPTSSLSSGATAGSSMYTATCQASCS

Target: human GLP-1 receptor (human, UniProt P43220 24-463)
Assay: cell-based or functional assay

Binder	IC50 (nM): block of cAMP induction by GLP-1 (0.05 nM), luciferase reporter in HEK 293 cells with human GLP-1 receptor
DLWKQMEEEAVRLFIEWLKNGGPSSGAPPPSK (K40(C18 DiAcid); C-terminal amide (-NH2)) [Ex9-40amide, W11, K40 (C18 diacid)]	43 nM
DLWKQMEEEAVRLFIEWLKNGGPSSGAPPPSK (K40(mPeg-gE(C18 diacid)); C-terminal amide (-NH2)) [Ex9-40amide, W11, K40 (mPeg-γE-C18 diacid)]	87 nM
